Patent publication US20170165247A1, “CRYSTALLINE COMPOUNDS OF DABIGATRAN ETEXILATE” (OLON S.p.A., priority 2014, published 2017)

Assay: Thermodynamic solubility test in buffer solution (HPLC)
Format: physicochemical
Details: 37° C., 24 hours, compared with dabigatran etexilate mesylate
Method: The solubility tests were performed in a buffer solution at ph 4.5 and compared with the solubility data of dabigatran etexilate mesylate (commercial form). In the HPLC method herein below, acetonitrile was used to dissolve the active ingredient.
Thermodynamic Solubility Tests
The sample (approx. 50 mg) was weighted in a vial and left under magnetic stirring (approx. 300 rpm) in approx. 2 mL of buffer solution at 37° C. for 24 hours. The experiments were carried out at pH 4.5 and pH 6.8. The suspensions were filtered with 0.45 μm filter and analyzed by HPLC method previously reported. From the obtained area an opportune dilution of the sample was performed to obtain a value consistent with the Calibration Curve. Every diluted sample was analyzed by HPLC and the results were interpolated by the calibration curve.
Each experiment was replicated twice.

Dabigatran Etexilate Orotate Anhydrous Form a (Dabigatran/Orotic Acid 1/1 Mol/Mole)
thermodynamic solubility, times higher than the mesylate derivative: more than 1.4 times
